Source: US11819489B2 (priority 2017, dated 2023)

Assays:
K562 cells = assay: MTT cytotoxicity assay on K562 cells; conditions: for IC50: K562 cells, 24-h treatment
HepG2 cells [1] = assay: Cellular As uptake, HepG2 cells; format: cell-based, human; conditions: 24-h treatment, 1.5 μM As
[2] = test system: human peripheral blood mononuclear cells (hPBMC); assay: MTT cytotoxicity assay on hPBMC; conditions: 24-h treatment, MTT
HL-60 cells = assay: MTT cytotoxicity assay on HL-60 cells; conditions: HL-60 cells, 24-h treatment, MTT
HepG2 cells [3] = assay: MTT cytotoxicity assay on HepG2 cells; conditions: 24-h treatment
Kasumi-1 cells = assay: MTT cytotoxicity assay on Kasumi-1 cells; conditions: 24-h treatment
KARPAS 45 cells = assay: MTT cytotoxicity assay on KARPAS 45 cells
[4] = test system: Chinese hamster (CH) solid tumour cells; assay: MTT cytotoxicity assay on Chinese hamster solid tumour cells; conditions: 24-h treatment
[5] = triplicate MTT assays (Table 15)

Row | Compound | toxicity of the two HPLC fractions / isomers compared (K562 cells; K562, preliminary toxicity studies) | IC50 (K562 cells; MTT) [µM] | IC50 (K562 cells; [5]) [PM] | cellular As concentration in HepG2 cells, times greater than in HL-60 cells (HepG2 cells [1]) [times] | cellular As concentration in HepG2 cells, times greater than in Kasumi-1 cells (HepG2 cells [1]) [times] | cellular As concentration in HepG2 cells, times higher than in K562 cells (HepG2 cells [1]) [times] | cellular As concentration in HepG2 cells, times higher than in KARPAS 45 cells (HepG2 cells [1]) [times] | cellular As concentration in HepG2 cells, times higher than in hPBMC (HepG2 cells [1]) [times] | IC50 [2] | relative toxicity / IC50 versus another compound, in words (comparator in the value) (K562 cells; K562, 24-h treatment) | IC50 (HL-60 cells) [µM] | IC50 (HepG2 cells [3]) [µM] | IC50 (Kasumi-1 cells) [µM] | relative toxicity / IC50 versus another compound, in words (comparator in the value) (KARPAS 45 cells; KARPAS 45, 24-h treatment) | IC50 (KARPAS 45 cells; KARPAS 45 cells, 24-h treatment, MTT) | IC50 [4] [µM]
1 | O=[As](O)(O)c1ccc(I)cc1 | elicited the same toxicity |  |  |  |  |  |  |  |  |  |  |  |  |  |  | 
2 | Arsenic(III) triiodide |  | 18.1 | 18.14 ± 0.75 |  |  |  |  |  |  |  |  |  |  |  |  | 
3 | O=[As]c1ccccc1 (stereo not drawn) |  | 3.4 | 3.40 ± 0.42 | 7.6 | 3.9 | 3.8 | 4.8 | 2.2 | 9.3 µM and 9 µM | three times more toxic than ATO | 1.5 | 0.63 | 5.1 | approximately three times more toxic than ATO | 5.1 µM and 5 µM | 1.49

“And” between values parts separate entries of the source, which are not always exact repeats. Identical values can stand only once.
